# Literature values, collected in patent US20250313640A1, “INHIBITION OF CSF-1 or CSF-1R FOR THE TREATMENT OF MINIMAL RESIDUAL DISEASE” (BOARD OF REGENTS, THE UNIVERSITY OF TEXAS SYSTEM, priority 2024, published 2025).
# Tested on: TGCT
substance,measurement,setting,value
"Emactuzumab: clinical stage humanized IgG1 CSF1R targeted antibody; heavy chain SEQ ID NO: 20, light chain SEQ ID NO: 21",safety profile in patients,,favorable safety profile
same,efficacy for TGCT,patients,encouraging efficacy
